Tests used:
[1] = test system: T1, SWELL1 protein in 3T3-F442A adipocytes; test: SWELL1 protein western blot in adipocytes; assay type: cell-based, murine; conditions: 10 and 1 μM, 4 days, then 6 h serum starving
T1 construct: Western blots detecting SWELL1 and β-actin in WT 3T3-F442A adipocytes treated with either vehicle or SN-401 (10 µM) for 96 h; host or cells: 3T3-F442A preadipocytes and differentiated adipocytes (wild type)
Description: For SN-401 treatment and insulin signaling studies in 3T3-F442A preadipocytes, the cells were incubated with either vehicle (DMSO) or 10 µM SN-401 for 96 h. The cells were serum-starved for 6 h with vehicle (DMSO) or SN-401 and washed with PBS three times and stimulated with 0, 3, and 10 nM insulin-containing media for 15 min prior to collecting lysates. In the case of 3T3-F442A adipocytes, the WT and KO cells were treated with either vehicle (DMSO), 1 or 10 µM SN-40X (after 7–11 days of differentiation) for 96 h and then stimulated with 0 and 10 nM insulin/serum-containing media with vehicle (DMSO) or SN-40X for 15 min for SWELL1 detection. For AKT and AS160 signaling, the WT and KO cells were treated with either vehicle (DMSO) or 500 nM SN-401 for 96 h and serum-starved in the presence of vehicle or SN-401 (500 nM) for 6 h. The cells were washed twice in hypotonic buffer (240 mOsm; 90 mM NaCl, 5 mM NaHCO3, 4.8 mM KCl, 1.2 mM KH2PO4, 2.5 mM CaCl2, 2.4 mM MgSO4, 10 mM HEPES, and 25 mM Glucose, pH 7.4) and then incubated at 37 °C in a hypotonic buffer for 10 min followed by a serum-free media wash and subsequent stimulation with insulin/serum-containing media for 30 min at 37 °C without SN-401 (or vehicle). […]

T2D and non-T2D mice = test: Metabolic phenotyping: fasting glucose, GTT, ITT; conditions: HFD-fed T2D C57 mice, 5 mg/kg/day p.o.

Compound: CCCCC1(C2CCCC2)Cc2cc(OCCCC(=O)O)c(Cl)c(Cl)c2C1=O (centres unmarked) [SN-401, 4-((2-butyl-6,7-dichloro-2-cyclopentyl-1-oxo-2,3-dihydro-1H-inden-5-yl)oxy)butanoic acid]
- SWELL1 protein level relative to vehicle-treated controls [1]: 1.5–2.1 fold
- in vivo therapeutic efficacy by oral gavage (T2D and non-T2D mice): fully retains in vivo therapeutic efficacy
